Source: patent US7947834B2, “Substituted quinoxalines, their preparation and their therapeutical use as 11βHSD1 modulators” (Sanofi-Aventis, priority 2006, dated 2011)

The chains behind the UniProt entries cited, without tags or fusion partners.
UniProt P28845, whole entry: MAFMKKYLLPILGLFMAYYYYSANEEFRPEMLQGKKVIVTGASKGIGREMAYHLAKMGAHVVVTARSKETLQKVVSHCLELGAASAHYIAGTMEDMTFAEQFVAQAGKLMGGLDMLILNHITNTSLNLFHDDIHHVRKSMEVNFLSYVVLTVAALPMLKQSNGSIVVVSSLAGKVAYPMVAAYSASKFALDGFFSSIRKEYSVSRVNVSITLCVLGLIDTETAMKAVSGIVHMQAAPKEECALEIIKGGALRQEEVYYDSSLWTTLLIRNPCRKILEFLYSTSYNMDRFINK

Target: recombinant 11β-HSD1 protein (Homo sapiens, UniProt P28845)
Test: 11β-HSD1 SPA (Scintillation Proximity Assay) enzyme inhibition test, 384-well format
Settings: read-out: IC50 (concentration which inhibits 50% of the activity of 11β-HSD1); 3H-cortisone and NADPH; cortisol formed measured by SPA; tested form: oxalate (1/2)
From the text: The compounds according to the invention formed the subject of pharmacological tests which make it possible to determine their inhibiting effect on the 11β-HSD1 enzyme, which is an enzyme which is involved in the metabolism of lipids or the metabolism of glucose.
These tests consisted in measuring the in vitro inhibiting activity of the compounds of the invention by virtue of an SPA (Scintillation Proximity Assay) test in 384-well format. The recombinant 11β-HSD1 protein was produced in the yeast S. cerevisiae. The reaction was carried out by incubating the enzyme in the presence of ^3H-cortisone and of NADPH, in the absence or in the presence of an increasing concentration of inhibitor. SPA beads coupled to an antimouse antibody, which are preincubated with anticortisol antibody, made it possible to measure the amount of cortisol formed during the reaction.
The inhibiting activity with regard to the enzyme 11β-HSD1 is given by the concentration which inhibits 50% of the activity of 11β-HSD1 (IC50).

IC50: 230 nM
Compound: CC1CCc2ccccc2N1C(=O)N1CCC(c2cn(C)cn2)CC1 (stereo not shown)
